Reference: ChEMBL document CHEMBL5154899, “Spiropyrimidinetrione DNA Gyrase Inhibitors with Potent and Selective Antituberculosis Activity” (J Med Chem, 2022)

Assays:
[1] = octanol/water, pH 7.4, 3 h

Row | Structure (SMILES) | solubility kinetic at 20 h, 200 µM (physchem) [µM] | logD [1]
1 | C[C@@H]1CN2c3c(cc4c(OC[C@H]5CCC(=O)O5)noc4c3F)CC3(C(=O)NC(=O)NC3=O)[C@H]2[C@H](C)O1 | 155 (≈ 77.9 µg/mL) | 1.5
2 | C[C@@H]1CN2c3c(cc4c(-n5cncn5)noc4c3F)CC3(C(=O)NC(=O)NC3=O)[C@H]2[C@H](C)O1 | 115 (≈ 52.4 µg/mL) | 1.6
3 | C[C@@H]1CN2c3c(cc4c(N5C(=O)OC[C@@H]5C)noc4c3F)CC3(C(=O)NC(=O)NC3=O)[C@H]2[C@H](C)N1CC#N | 95 (≈ 49.9 µg/mL) | –
4 | C[C@@H]1CN2c3c(cc4c(N5CCC[C@@H](O)C5)noc4c3F)CC3(C(=O)NC(=O)NC3=O)[C@H]2[C@H](C)O1 | > 200 | 1.8
5 | C[C@@H]1CN2c3c(cc4c(N5CC[C@H](C(=O)O)C5)noc4c3F)CC3(C(=O)NC(=O)NC3=O)[C@H]2[C@H](C)O1 | 150 (≈ 75.2 µg/mL) | –
6 | Cc1nnc(-c2noc3c(F)c4c(cc23)CC2(C(=O)NC(=O)NC2=O)[C@H]2[C@H](C)O[C@H](C)CN42)o1 | 140 (≈ 65.9 µg/mL) | 2.3
7 | C[C@@H]1CN2c3c(cc4c(OC[C@@H]5CCC(=O)N5)noc4c3F)CC3(C(=O)NC(=O)NC3=O)[C@H]2[C@H](C)N1C#N | 130 (≈ 68.3 µg/mL) | 1.3
8 | C[C@@H]1CN2c3c(cc4c(N5CC[C@H](O)C5)noc4c3F)CC3(C(=O)NC(=O)NC3=O)[C@H]2[C@H](C)N1C#N | 155 (≈ 77.1 µg/mL) | 1.3
9 | C[C@@H]1CN2c3c(cc4c(OC[C@H]5CCC(=O)N5)noc4c3F)CC3(C(=O)NC(=O)NC3=O)[C@H]2[C@H](C)O1 | < 5 | 1.4
10 | C[C@@H]1CN2c3c(cc4c(N5CC[C@@](C)(O)C5)noc4c3F)CC3(C(=O)NC(=O)NC3=O)[C@H]2[C@H](C)O1 | 175 (≈ 85.3 µg/mL) | 1.6
11 | C[C@@H]1CN2c3c(cc4c(N5CC[C@@H](O)C5)noc4c3F)CC3(C(=O)NC(=O)NC3=O)[C@H]2[C@H](C)O1 | > 200 | 1.4
12 | Cc1nnc(COc2noc3c(F)c4c(cc23)CC2(C(=O)NC(=O)NC2=O)[C@H]2[C@H](C)O[C@H](C)CN42)o1 | 190 (≈ 95.1 µg/mL) | 1.6
13 | C[C@@H]1CN2c3c(cc4c(OCC[C@@H]5CCC(=O)N5)noc4c3F)CC3(C(=O)NC(=O)NC3=O)[C@H]2[C@H](C)O1 | 190 (≈ 97.9 µg/mL) | 1.7
14 | C[C@@H]1CN2c3c(cc4c(OC[C@@H]5CNC(=O)C5)noc4c3F)CC3(C(=O)NC(=O)NC3=O)[C@H]2[C@H](C)O1 | 190 (≈ 95.3 µg/mL) | 1.3
15 | C[C@@H]1CN2c3c(cc4c(OC[C@@H]5CCC(=O)N5C)noc4c3F)CC3(C(=O)NC(=O)NC3=O)[C@H]2[C@H](C)O1 | 190 (≈ 97.9 µg/mL) | 1.6
16 | C[C@@H]1CN2c3c(cc4c(-n5cncn5)noc4c3F)CC3(C(=O)NC(=O)NC3=O)[C@H]2[C@H](C)N1C#N | 50 (≈ 24 µg/mL) | 1.7
17 | C[C@@H]1CN2c3c(cc4c(N5CC[C@@H](O)C5)noc4c3F)CC3(C(=O)NC(=O)NC3=O)[C@H]2[C@H](C)N1C#N | 145 (≈ 72.1 µg/mL) | 1.2
18 | C[C@@H]1CN2c3c(cc4c(N5CC[C@H](C#N)C5)noc4c3F)CC3(C(=O)NC(=O)NC3=O)[C@H]2[C@H](C)O1 | > 200 | 1.7
19 | C[C@@H]1CN2c3c(cc4c(OC[C@H]5COC(=O)N5)noc4c3F)CC3(C(=O)NC(=O)NC3=O)[C@H]2[C@H](C)O1 | 190 (≈ 95.7 µg/mL) | 1.3
20 | C[C@@H]1CN2c3c(cc4c(N5CC[C@H](N)C5)noc4c3F)CC3(C(=O)NC(=O)NC3=O)[C@H]2[C@H](C)O1 | > 200 | 0.16

Row | Structure (SMILES) | solubility kinetic at 20 h, 200 µM (physchem) [µM] | logD [1]
21 | C[C@@H]1CN2c3c(cc4c(N5C(=O)OC[C@@H]5C)noc4c3F)CC3(C(=O)NC(=O)NC3=O)[C@H]2[C@H](C)N1C#N | < 5 | 1.8
22 | C[C@@H]1CN2c3c(cc4c(N5C[C@@H](O)[C@@H](O)C5)noc4c3F)CC3(C(=O)NC(=O)NC3=O)[C@H]2[C@H](C)O1 | > 200 | 0.76
23 | C[C@H]1C[C@@H](C)[C@H]2N(C1)c1c(cc3c(OC[C@@H]4CCC(=O)N4)noc3c1F)CC21C(=O)NC(=O)NC1=O | 40 (≈ 20 µg/mL) | 3.9
24 | C[C@@H]1CN2c3c(cc4c(N5C[C@H](O)[C@@H](O)C5)noc4c3F)CC3(C(=O)NC(=O)NC3=O)[C@H]2[C@H](C)O1 | 190 (≈ 93 µg/mL) | 0.89
25 | CO[C@H]1CCN(c2noc3c(F)c4c(cc23)CC2(C(=O)NC(=O)NC2=O)[C@H]2[C@H](C)O[C@H](C)CN42)C1 | 140 (≈ 68.2 µg/mL) | 2
26 | C[C@@H]1CN2c3c(cc4c(OC[C@@H]5CCC(=O)O5)noc4c3F)CC3(C(=O)NC(=O)NC3=O)[C@H]2[C@H](C)O1 | 170 (≈ 85.4 µg/mL) | 1.6
27 | C[C@@H]1CN2c3c(cc4c(N5C(=O)OC[C@@H]5C)noc4c3F)CC3(C(=O)NC(=O)NC3=O)[C@H]2[C@H](C)N1O | > 200 | 0.58
28 | Cc1nnc(-c2noc3c(F)c4c(cc23)CC2(C(=O)NC(=O)NC2=O)[C@H]2[C@H](C)[C@@H](O)[C@H](C)CN42)o1 | 15 (≈ 7.27 µg/mL) | 3.2
29 | C[C@@H]1CN2c3c(cc4c(OC[C@H]5CNC(=O)C5)noc4c3F)CC3(C(=O)NC(=O)NC3=O)[C@H]2[C@H](C)O1 | 200 (≈ 100 µg/mL) | 1.4
30 | CC(=O)N1[C@H](C)CN2c3c(cc4c(N5C(=O)OC[C@@H]5C)noc4c3F)CC3(C(=O)NC(=O)NC3=O)[C@H]2[C@@H]1C | > 200 | 1.4
31 | C[C@@H]1CN2c3c(cc4c(OC[C@@H]5COC(=O)N5)noc4c3F)CC3(C(=O)NC(=O)NC3=O)[C@H]2[C@H](C)O1 | 180 (≈ 90.6 µg/mL) | –
32 | C[C@@H]1CN2c3c(cc4c(N5C(=O)OC[C@@H]5C)noc4c3F)CC3(C(=O)NC(=O)NC3=O)[C@H]2[C@H](C)N1 | 50 (≈ 24.3 µg/mL) | 0.3
33 | C[C@@H]1CN2c3c(cc4c(N5CC[C@H](O)C5)noc4c3F)CC3(C(=O)NC(=O)NC3=O)[C@H]2[C@H](C)O1 | 190 (≈ 90 µg/mL) | –
34 | C[C@@H]1CN2c3c(cc4c(N5CCC[C@H](O)C5)noc4c3F)CC3(C(=O)NC(=O)NC3=O)[C@H]2[C@H](C)O1 | > 200 | 1.9
35 | C[C@@H]1CN2c3c(cc4c(N5C[C@@H](O)[C@H](O)C5)noc4c3F)CC3(C(=O)NC(=O)NC3=O)[C@H]2[C@H](C)O1 | > 200 | 1.2
36 | Cc1nnc(-c2noc3c(F)c4c(cc23)CC2(C(=O)NC(=O)NC2=O)[C@H]2[C@H](C)N(C#N)[C@H](C)CN42)o1 | 45 (≈ 22.2 µg/mL) | 1.9
37 | C[C@@H]1CN2c3c(cc4c(OC[C@@H]5CCC(=O)N5)noc4c3F)CC3(C(=O)NC(=O)NC3=O)[C@H]2[C@H](C)O1 | 185 (≈ 92.8 µg/mL) | –
38 | C[C@@H]1CN2c3c(cc4c(N5CC[C@H](CO)C5)noc4c3F)CC3(C(=O)NC(=O)NC3=O)[C@H]2[C@H](C)O1 | 170 (≈ 82.9 µg/mL) | 1.7
39 | C[C@@H]1CN2c3c(cc4c(N5CC[C@H](F)C5)noc4c3F)CC3(C(=O)NC(=O)NC3=O)[C@H]2[C@H](C)O1 | 5 (≈ 2.38 µg/mL) | 2.2

Converted amounts (≈) assume the structure as drawn.
